From PubChem BioAssay (Tox21)
The list shows a part of the results, in another mix than the full data. Inconclusive results are not listed. Calls of active or inactive are those of the source. The call rests on the fitted dose curve; in most records, active means well fitted curve in the direction sought with a large enough effect in the repeat runs; inconclusive means weak or mixed curves; inactive means no such curve, though single readings can be large; an effect the other way counts as inactive or inconclusive.

Chains of the proteins cited; added tags and fusions are not shown.
UniProt P10635, whole entry: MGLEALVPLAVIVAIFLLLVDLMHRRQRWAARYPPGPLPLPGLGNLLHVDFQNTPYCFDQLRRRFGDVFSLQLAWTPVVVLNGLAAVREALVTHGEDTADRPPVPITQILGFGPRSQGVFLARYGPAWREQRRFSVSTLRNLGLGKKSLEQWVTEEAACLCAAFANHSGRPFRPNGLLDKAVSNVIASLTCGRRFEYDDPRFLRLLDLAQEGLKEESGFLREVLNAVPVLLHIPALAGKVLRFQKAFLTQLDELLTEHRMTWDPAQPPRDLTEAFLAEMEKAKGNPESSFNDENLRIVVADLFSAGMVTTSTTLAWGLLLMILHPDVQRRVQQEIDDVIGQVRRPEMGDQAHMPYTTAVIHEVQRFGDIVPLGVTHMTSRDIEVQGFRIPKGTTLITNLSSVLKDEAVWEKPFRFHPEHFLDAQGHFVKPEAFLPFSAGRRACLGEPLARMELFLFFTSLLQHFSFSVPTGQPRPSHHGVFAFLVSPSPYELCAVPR
UniProt P33261, whole entry: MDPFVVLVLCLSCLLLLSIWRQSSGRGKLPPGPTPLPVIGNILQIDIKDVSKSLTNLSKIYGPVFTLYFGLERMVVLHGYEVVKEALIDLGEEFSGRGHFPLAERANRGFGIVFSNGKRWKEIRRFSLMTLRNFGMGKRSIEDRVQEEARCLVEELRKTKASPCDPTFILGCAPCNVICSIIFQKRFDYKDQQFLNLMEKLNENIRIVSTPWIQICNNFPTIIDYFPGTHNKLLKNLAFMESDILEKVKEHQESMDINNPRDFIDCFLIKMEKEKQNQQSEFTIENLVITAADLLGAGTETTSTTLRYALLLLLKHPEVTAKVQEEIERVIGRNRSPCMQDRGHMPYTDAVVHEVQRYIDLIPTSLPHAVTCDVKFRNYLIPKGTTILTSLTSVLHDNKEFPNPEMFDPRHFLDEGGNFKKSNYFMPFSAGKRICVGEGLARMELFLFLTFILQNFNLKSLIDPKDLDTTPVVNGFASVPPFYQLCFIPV
UniProt P05177, whole entry: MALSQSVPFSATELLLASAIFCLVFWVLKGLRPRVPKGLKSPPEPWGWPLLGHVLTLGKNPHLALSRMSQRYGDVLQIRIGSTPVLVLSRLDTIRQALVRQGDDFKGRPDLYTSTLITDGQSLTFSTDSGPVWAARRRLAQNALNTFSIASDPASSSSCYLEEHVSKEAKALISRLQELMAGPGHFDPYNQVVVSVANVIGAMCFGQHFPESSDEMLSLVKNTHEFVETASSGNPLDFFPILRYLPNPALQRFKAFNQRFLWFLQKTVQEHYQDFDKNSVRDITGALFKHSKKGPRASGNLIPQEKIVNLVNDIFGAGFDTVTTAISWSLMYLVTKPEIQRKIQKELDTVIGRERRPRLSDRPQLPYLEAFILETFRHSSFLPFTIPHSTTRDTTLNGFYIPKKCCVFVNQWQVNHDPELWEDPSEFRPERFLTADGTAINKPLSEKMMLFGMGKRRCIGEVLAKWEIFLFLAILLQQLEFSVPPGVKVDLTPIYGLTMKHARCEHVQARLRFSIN
UniProt Q12809, whole entry: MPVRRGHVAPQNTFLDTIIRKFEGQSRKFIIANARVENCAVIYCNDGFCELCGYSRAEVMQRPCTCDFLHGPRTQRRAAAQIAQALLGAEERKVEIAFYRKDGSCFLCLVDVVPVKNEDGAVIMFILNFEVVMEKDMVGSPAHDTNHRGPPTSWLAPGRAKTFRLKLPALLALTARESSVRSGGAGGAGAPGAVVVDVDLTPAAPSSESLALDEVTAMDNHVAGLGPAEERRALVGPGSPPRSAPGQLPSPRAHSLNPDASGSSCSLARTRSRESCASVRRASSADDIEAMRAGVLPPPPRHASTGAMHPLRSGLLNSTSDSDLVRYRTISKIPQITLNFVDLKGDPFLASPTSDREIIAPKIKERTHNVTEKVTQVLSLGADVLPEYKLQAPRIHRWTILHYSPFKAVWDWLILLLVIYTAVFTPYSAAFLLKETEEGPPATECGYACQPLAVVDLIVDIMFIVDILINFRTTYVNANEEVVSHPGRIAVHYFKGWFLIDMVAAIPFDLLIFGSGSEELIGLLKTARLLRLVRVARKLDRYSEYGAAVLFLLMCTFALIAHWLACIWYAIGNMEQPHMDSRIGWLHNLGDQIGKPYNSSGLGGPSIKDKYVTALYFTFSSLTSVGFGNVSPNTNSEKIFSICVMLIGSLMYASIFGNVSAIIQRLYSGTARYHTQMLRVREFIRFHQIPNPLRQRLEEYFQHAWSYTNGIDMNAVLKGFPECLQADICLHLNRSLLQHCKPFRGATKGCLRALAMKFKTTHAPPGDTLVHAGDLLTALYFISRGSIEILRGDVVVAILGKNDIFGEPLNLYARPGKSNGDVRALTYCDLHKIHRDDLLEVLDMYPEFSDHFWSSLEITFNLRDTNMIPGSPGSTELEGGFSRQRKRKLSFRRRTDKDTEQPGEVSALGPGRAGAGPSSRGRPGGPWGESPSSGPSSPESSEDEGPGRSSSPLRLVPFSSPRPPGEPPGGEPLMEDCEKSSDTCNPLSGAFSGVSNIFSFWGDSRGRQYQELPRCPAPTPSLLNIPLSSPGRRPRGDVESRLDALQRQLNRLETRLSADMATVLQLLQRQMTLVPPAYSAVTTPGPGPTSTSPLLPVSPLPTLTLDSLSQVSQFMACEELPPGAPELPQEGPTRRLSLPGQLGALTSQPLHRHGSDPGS
UniProt P08684, whole entry: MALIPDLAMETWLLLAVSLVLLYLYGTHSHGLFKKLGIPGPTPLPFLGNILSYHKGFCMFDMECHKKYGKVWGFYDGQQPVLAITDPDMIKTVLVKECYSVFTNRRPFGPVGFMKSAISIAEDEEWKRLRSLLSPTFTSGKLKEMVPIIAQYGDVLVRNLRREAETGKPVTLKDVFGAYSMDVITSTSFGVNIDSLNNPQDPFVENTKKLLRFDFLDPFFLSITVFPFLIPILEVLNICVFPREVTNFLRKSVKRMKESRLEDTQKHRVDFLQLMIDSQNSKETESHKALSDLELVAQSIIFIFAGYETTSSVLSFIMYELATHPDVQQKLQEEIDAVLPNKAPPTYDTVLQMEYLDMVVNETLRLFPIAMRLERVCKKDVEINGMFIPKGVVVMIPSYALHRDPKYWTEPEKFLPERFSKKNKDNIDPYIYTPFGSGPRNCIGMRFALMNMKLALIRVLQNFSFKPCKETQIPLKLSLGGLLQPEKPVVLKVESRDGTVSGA
UniProt O75469, whole entry: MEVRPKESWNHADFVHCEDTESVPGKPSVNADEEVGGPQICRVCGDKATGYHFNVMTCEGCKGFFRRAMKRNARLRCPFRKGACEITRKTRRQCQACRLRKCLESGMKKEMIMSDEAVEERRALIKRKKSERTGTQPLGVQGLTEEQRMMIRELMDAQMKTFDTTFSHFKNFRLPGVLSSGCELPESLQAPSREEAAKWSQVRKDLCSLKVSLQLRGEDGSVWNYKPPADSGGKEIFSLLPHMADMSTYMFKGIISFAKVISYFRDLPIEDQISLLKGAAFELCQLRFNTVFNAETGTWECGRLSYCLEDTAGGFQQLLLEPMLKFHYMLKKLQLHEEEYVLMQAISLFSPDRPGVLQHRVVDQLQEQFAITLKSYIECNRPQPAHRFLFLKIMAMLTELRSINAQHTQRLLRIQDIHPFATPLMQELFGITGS
UniProt P11712, whole entry: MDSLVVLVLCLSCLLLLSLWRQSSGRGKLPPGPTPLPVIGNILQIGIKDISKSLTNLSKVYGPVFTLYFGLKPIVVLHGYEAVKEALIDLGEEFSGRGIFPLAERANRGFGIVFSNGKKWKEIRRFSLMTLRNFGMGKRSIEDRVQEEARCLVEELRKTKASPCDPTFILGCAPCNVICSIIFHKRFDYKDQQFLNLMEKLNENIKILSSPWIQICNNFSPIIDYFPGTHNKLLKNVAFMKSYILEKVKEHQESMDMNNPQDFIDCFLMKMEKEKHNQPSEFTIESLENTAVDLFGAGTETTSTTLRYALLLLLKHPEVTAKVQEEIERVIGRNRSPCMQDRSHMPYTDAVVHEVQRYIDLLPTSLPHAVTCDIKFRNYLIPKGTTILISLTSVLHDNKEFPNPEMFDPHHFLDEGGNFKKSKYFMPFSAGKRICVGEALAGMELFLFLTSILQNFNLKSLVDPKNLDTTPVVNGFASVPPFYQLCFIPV

How the values were obtained:
[1] = Human pregnane X receptor (PXR) small molecule agonists, qHTS cell viability counter screen (AID 1346977); conditions: PXR-Luc HepG2 viability, CellTiter-Fluor, 24 h; at 92.4 µM (top of the series); further: on the % scale 0 is the no-effect control and ±100 the full control effect; nearly all actives have a fitted effect of over 50% in size
Summary of the method: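 Cytotoxicity counter screen run in the same wells as the PXR luciferase assay, using PXR-Luc HepG2 cells in charcoal-stripped serum medium. Viability: CellTiter-Fluor fluorescence after 24hr compound treatment.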

[2] = Caspase-3/7 induction in HepG2 cells by small molecules, qHTS assay (AID 1346978); conditions: HepG2 caspase-3/7 activation, Caspase-Glo luminescence, 17 h; at 92.4 µM (top of the series); further: on the % scale 0 is the no-effect control and ±100 the full control effect; nearly all actives have a fitted effect of over 15% in size
Summary of the method: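 Caspase-3/7 induction was measured by Caspase-Glo 3/7 luminescence (30 min, room temperature) after a 17 hr compound exposure of wild-type HepG2 cells seeded at 2,000 per well and pre-incubated 5 hr.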

[3] = Caspase-3/7 induction in CHO-K1 cells by small molecules, qHTS cell viability counter screen (AID 1346979); conditions: CellTiter-Fluor fluorescence, 17 h; at 92.4 µM (top of the series); further: on the % scale 0 is the no-effect control and ±100 the full control effect; nearly all actives have a fitted effect of over 35% in size
Summary of the method: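 Cytotoxicity counter screen run in parallel with the caspase-3/7 assay: CHO-K1 cells, 16hr compound treatment at 37C, then CellTiter-Fluor for 1hr before fluorescence reading.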

[4] = Caspase-3/7 induction in CHO-K1 cells by small molecules, qHTS assay (AID 1346980); further: nearly all actives have a fitted effect of over 15% in size; further: potency means the concentration at half of the fitted maximal effect; on caspase-3/7 activation: on the % scale 0 is the no-effect control and ±100 the full control effect
Summary of the method: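 Luminescent Caspase-Glo 3/7 read (30min, room temperature) quantified apoptosis induction. Cells were wild-type CHO-K1, treated with compound for 17hr at 37 C and 5% CO2.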

[5] = Caspase-3/7 induction in HepG2 cells by small molecules, qHTS cell viability counter screen (AID 1346981); conditions: CellTiter-Fluor fluorescence, 17 h; at 92.4 µM (top of the series); further: on the % scale 0 is the no-effect control and ±100 the full control effect; nearly all actives have a fitted effect of over 30% in size
Summary of the method: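 Steps: seed 2,000 HepG2 cells per well; incubate 5 hr at 37 C; pin-add compounds in DMSO; incubate 16 hr; add CellTiter-Fluor; after 1 hr at 37 C and 5% CO2, read fluorescence.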

[6] = biological target: Cytochrome P450 2D6 (Homo sapiens) (UniProt P10635); assay: Cytochrome P450 Family 2 Subfamily D Member 6 (CYP2D6) small molecule antagonists: luciferase reporter qHTS assay (AID 1671196); further: nearly all actives have a fitted effect of over 50% in size; further: potency means the concentration at half of the fitted maximal effect; on activity change, negative = inhibition: on the % scale 0 is the no-effect control and ±100 the full control effect
Summary of the method: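 P450-Glo format: CYP2D6 converts a proluciferin substrate to luciferin in an NADPH-driven reaction lasting 1 h at room temperature. Light output, proportional to CYP2D6 activity, reflects interference by test chemicals.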

[7] = biological target: Cytochrome P450 2C19 (Homo sapiens) (UniProt P33261); assay: Cytochrome P450 Family 2 Subfamily C Member 19 (CYP2C19) small molecule antagonists: luciferase reporter qHTS assay (AID 1671197); further: nearly all actives have a fitted effect of over 65% in size; further: potency means the concentration at half of the fitted maximal effect; on activity change, negative = inhibition: on the % scale 0 is the no-effect control and ±100 the full control effect
Summary of the method: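 P450-Glo CYP2C19 system: enzyme-substrate mix with compound 10 min at room temperature, then NADPH regeneration solution, 1 h at 37C. Proluciferin-to-luciferin conversion detected by luminescence after 20 min with detection reagent; ketoconazole as positive control.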

[8] = biological target: Cytochrome P450 1A2 (Homo sapiens) (UniProt P05177); assay: Cytochrome P450 Family 1 Subfamily A Member 2 (CYP1A2) small molecule antagonists: luciferase reporter qHTS assay (AID 1671199); conditions: P450-Glo CYP1A2 enzyme, luciferin luminescence, 1 h; at 115 µM (top of the series) unless noted; further: on the % scale 0 is the no-effect control and ±100 the full control effect; nearly all actives have a fitted effect of over 50% in size
[9] = biological target: Voltage-gated inwardly rectifying potassium channel KCNH2 (Homo sapiens) (UniProt Q12809); assay: Human Ether-a-go-go-Related Gene (hERG) channel small molecule antagonists: fluorescence cell-based qHTS assay (AID 1671200); further: nearly all actives have a fitted effect of over 50% in size; further: potency means the concentration at half of the fitted maximal effect;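 on activity change, negative = inhibition: hERG-expressing U2OS cells given a thallium stimulus after FluxOR II dye loading; on the % scale 0 is the no-effect control and ±100 the full control effect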
Summary of the method: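 Fluorescence at 540 nm emission (480 nm excitation) was recorded kinetically for 2 min at 1-second intervals once the thallium-containing stimulus reached cells previously loaded with FluxOR II dye.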

[10] = biological target: Cytochrome P450 3A4 (Homo sapiens) (UniProt P08684); assay: Cytochrome P450 Family 3 Subfamily A Member 4 (CYP3A4) small molecule antagonists: luciferase reporter qHTS assay (AID 1671201); further: nearly all actives have a fitted effect of over 50% in size; further: potency means the concentration at half of the fitted maximal effect
Summary of the method: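 qHTS, 1536-well. CYP3A4 + proluciferin substrate, cpd 10 min RT → NADPH regen 1 h RT → detection reagent 20 min → luminescence (RLU). Ketoconazole positive control.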

[11] = biological target: Nuclear receptor subfamily 1 group I member 2 (Homo sapiens) (UniProt O75469); assay: Human pregnane X receptor (PXR) small molecule agonists, qHTS assay (AID 1346982); conditions: PXR-Luc HepG2, CYP3A4 luciferase reporter, 24 h; further: potency means the concentration at half of the fitted maximal effect; nearly all actives have a fitted effect of over 35% in size
Summary of the method: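 Agonist mode qHTS: PXR-Luc HepG2 cells plated 5 hr before DMSO-dissolved compounds were pinned in, cultured 24 hr at 37 C, 5% CO2; ONE-Glo luminescence readout.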

[12] = biological target: Cytochrome P450 2C9 (Homo sapiens) (UniProt P11712); assay: Cytochrome P450 Family 2 Subfamily C Member 9 (CYP2C9) small molecule antagonists: luciferase reporter qHTS assay (AID 1671198); conditions: P450-Glo CYP2C9 enzyme assay, luciferin luminescence
Summary of the method: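 Enzyme-substrate mix preincubated with compound 10 min at room temperature; reaction started with NADPH regeneration solution, 1 h 37C. Luminescent luciferin product read after 20 min detection reagent.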

Compound	activity change, negative = cytotoxicity [1]	caspase activation [2]	activity change, negative = cytotoxicity [3]	Potency [4]	activity change, negative = cytotoxicity [5]	Potency [6]	Potency [7]	activity change, negative = inhibition [8]	Potency [9]	Potency [10]	Potency [11]	activity change, negative = inhibition ([12]; at 115 µM (top of the series))	activity change, negative = inhibition ([12]; at 53 µM (top of the series))
CCC(=O)N(c1ccccc1)C1(COC)CCN(CCn2nnn(CC)c2=O)CC1	inactive: 3.47%	inactive: 0.682%	inactive: -0.495%	inactive	inactive: -0.218%	inactive	inactive	inactive: -5.26%	inactive	active: 493 nM	–	–	–
CCC(=O)N(c1ccccc1)C1(COC)CCN(CCc2cccs2)CC1	–	inactive: 0.215%	inactive: -10.3%	inactive	–	active: 1420 nM	active: 39900 nM	inactive: -11%	active: 776 nM	active: 796 nM	active: 2730 nM	–	–
O=[N+]([O-])C(Cl)(Cl)Cl	inactive: -21.9%	inactive: 2.68%	–	active: 13600 nM	inactive: 0.23%	inactive	active: 79400 nM	–	inactive	inactive	active: 10800 nM	inactive: -19.8%	–
CN(CCCl)CCCl	–	–	–	–	–	inactive	inactive	inactive: 1.26% [at 53 µM]	inactive	inactive	–	inactive: -17.7%	inactive: -0.285%
